The source of these data is PMC6470953, “Symmetrical Modification of Minimized Dermaseptins to Extend the Spectrum of Antimicrobials with Endotoxin Neutralization Potency” (International Journal of Molecular Sciences, 2019).

Holding throughout (format): cell-based
One data set concerns P. aeruginosa ATCC 27853. Nature of the data set: MIC assay, P. aeruginosa ATCC 27853. To be noted: two-fold dilution in 96-well plates, MHB, 2-7 × 10^5 CFU/mL, 18–24 h, 37 °C. The procedure: (§1) MIC measurements were performed in 96-well plates. The peptides were dissolved in 0.2% bovine serum albumin and 0.01% acetic acid, and an appropriate broth was subjected to a series of two-fold dilutions. The final concentration of microbial suspensions was from 2 × 10^5 to 7 × 10^5 colony forming units (CFU)∙mL^−1. Key parameters were volume (50 μL bacterial suspension + 50 μL peptide solution), incubating time (18–24 h), and temperature (37 °C). Each test was performed in three replicates on at least two independent occasions. The Mueller Hilton broth (MHB) (AoBoX, Shanghai, China) without or with microbial cells was regarded as the negative control or positive control, respectively. MICs were recorded at the lowest peptide concentration without visible turbidity and spectrophotometrically by measuring the optical density (OD) at 492 nm (Tecan, Salzburg, Austria).

The subject of data set [1] is human red blood cells (hRBCs). Briefly: Hemolytic activity assay. As to conditions: lowest peptide concentration that induces 5% hemolysis; hRBCs in PBS pH 7.4, 1 h, 37 °C, OD570. The procedure: Hemolytic activity measurements were performed to evaluate the effect of peptides on hemoglobin release levels by erythrocyte lysis. The experimental protocol was reviewed and approved by the ethics committee of the Northeast Agricultural University Hospital, and the experimental method was carried out in accordance with the approved guidelines and regulations. A total of 1 mL of fresh hRBCs was collected and diluted 10-fold with PBS (pH 7.4). A quantity of 50 μL of the hRBCs solution was incubated with 50 μL of serially diluted peptides dissolved in PBS for 1 h at 37 °C. hRBC suspension treated with 0.1% Triton X-100 was employed as a positive control and an untreated hRBC suspension was used as a negative control. A total of 50 μL of the supernatant was collected from the mixture after centrifugation (1000g, 5 min, 4 °C) and transferred to a new 96-well microplate. The percent hemolysis was calculated using the following equation: Hemolysis (%) = [(OD570 of the treated sample — OD570 of the negative control)/(OD570 of the positive control — OD570 of the negative control)] × 100%.

For the next data set, the system named is E. coli UB1005. Briefly: MIC assay, E. coli UB1005. As to conditions: two-fold dilution in 96-well plates, MHB, 2-7 × 10^5 CFU/mL, 18–24 h, 37 °C. The procedure:
as §1

Data set [2] deals with S. typhimurium ATCC 14028. Nature of the data set: MIC assay, S. typhimurium ATCC 14028. As to conditions: two-fold dilution in 96-well plates, MHB, 2-7 × 10^5 CFU/mL, 18–24 h, 37 °C. The procedure:
as §1

For data set [3], the system named is S. epidermidis ATCC 12228. Nature of the data set: MIC assay, S. epidermidis ATCC 12228. As to conditions: two-fold dilution in 96-well plates, MHB, 2-7 × 10^5 CFU/mL, 18–24 h, 37 °C. As to the method:
as §1

≈ marks a conversion by molar mass, not a printed value.

A word on the MIC: it is the lowest concentration that inhibits growth of the organism. On to `CC[C@H](C)[C@H](NC(=O)CN)C(=O)NCC(=O)N[C@@H](C)C(=O)N[C@H](C(=O)N[C@@H](CC(C)C)C(=O)N[C@@H](CCCCN)C(=O)N[C@H](C(=O)N[C@@H](CC(C)C)C(=O)N[C@H](C(=O)N[C@H](C(=O)NCC(=O)N[C@@H](CC(C)C)C(=O)N1CCC[C@H]1C(=O)N[C@@H](C)C(=O)N[C@@H](CC(C)C)C(=O)N[C@H](C(=O)N[C@@H](CO)C(=O)N[C@@H](Cc1c[nH]c2ccccc12)C(=O)N[C@H](C(=O)N[C@@H](CCCCN)C(=O)N[C@@H](CCCNC(=N)N)C(=O)N[C@@H](CCCCN)C(=O)N[C@@H](CCCNC(=N)N)C(=O)N[C@@H](CCC(N)=O)C(=O)N[C@@H](CCC(N)=O)C(N)=O)[C@@H](C)CC)[C@@H](C)CC)[C@@H](C)O)[C@@H](C)O)C(C)C)C(C)C` [Melittin], for which the MIC against P. aeruginosa ATCC 27853 turned out to be 2 µM (≈ 5.69 µg/mL); in the data set with E. coli UB1005 it was 2 µM (≈ 5.69 µg/mL); in data set [2], 4 µM (≈ 11.4 µg/mL); in data set [3], 0.5 µM (≈ 1.42 µg/mL). Besides, the “MHC5 (minimum hemolysis concentration 5%)” value in data set [1] turned out to be 0.25 µM.
